{
  "source": "patent US4291024A",
  "about": "“Cytotoxic liponucleotide analogs” (priority 1980, dated 1981)",
  "key": {"[1]": {"system": "leukemia L5178Y ascites cells", "test": "Survival time of mice bearing leukemia L5178Y ascites cells, Ia-11-diglyceride", "format": "in vivo, mouse", "settings": "control +0.66", "description": "Mice (10/group) were inoculated with L5178Y cells (5×10^6 cells/mouse) and drug injections were begun on the second day. The drug in a volume of 0.1 ml was injected intraperitioneally once a day for four consecutive days. Saline was administered to the controls. The percent change in body weight from the onset to the termination of therapy was used as an indication of drug toxicity."}, "[2]": {"system": "human colon carcinoma HCT-15 cells", "test": "Antitumor activity against human colon carcinoma in immunosuppressed mice", "format": "in vivo, mouse", "settings": "for PER CENT CHANGE IN BODY WEIGHT: control +18", "description": "Male B6D2F1 mice (18-22 g, 4/group) were immunosuppressed with 0.25 ml subcutaneous injection of ATS on days -1,0,1,3 and 6. Human colon carcinoma cells (5.0×10^6 cells/mouse) were inoculated subcutaneously into an area slightly above the left inguinal region on day 0. The drug dissolved in saline to a volume of 0.1 ml was injected intraperitoneally once a day for four consecutive days. Saline was administered to the controls. The percent change in body weight from the onset to the day of weighing the tumor was used as an indication of drug toxicity."}, "LD10 (lethality)": {"test": "LD10 (lethality)", "format": "in vivo", "settings": "×4 regimen"}},
  "data": [
    {"substance": "1-Beta-D-Arabinofuranosylcytosine-5'-diphosphate-L-diglyceride Diammonium Salt [Ia-11-Diglyceride]", "values": [
      {"measurement": "% CHANGE IN WEIGHT", "setting": "[1]; 12.5 mg/kg daily i.p. ×4 days", "value": "+2.02%"},
      {"measurement": "% CHANGE IN WEIGHT", "setting": "[1]; 25.0 mg/kg daily i.p. ×4 days", "value": "+1.56%"},
      {"measurement": "% CHANGE IN WEIGHT", "setting": "[1]; 50.0 mg/kg daily i.p. ×4 days", "value": -0.30, "unit": "%"},
      {"measurement": "PER CENT CHANGE IN BODY WEIGHT", "setting": "[2]; 25 mg/kg daily i.p. ×4 days", "value": -11, "unit": "PER CENT"},
      {"measurement": "PER CENT CHANGE IN BODY WEIGHT", "setting": "[2]; 50 mg/kg daily i.p. ×4 days", "value": -20, "unit": "PER CENT"},
      {"measurement": "toxicity", "setting": "[2]; immunosuppressed mice with human colon carcinoma (Table 6)", "value": "toxicity (Table 6) was observed"},
      {"measurement": "LD10", "setting": "LD10 (lethality)", "value": 85, "unit": "mg/kg/day×4"}
    ]}
  ]
}
